According to patent US20090172831A1, “Methods for the production of plants resistant to HPPD herbicides” (Syngenta Limited, priority 2000, published 2009):
Where “and” joins values, the source holds several entries; their conditions need not be identical. Equal values may be shown once. Read-outs that look alike come from different tables or passages of the source.

The chains behind the UniProt entries cited, without tags or fusion partners.
UniProt A0A3B6NLC6, entry or part of it: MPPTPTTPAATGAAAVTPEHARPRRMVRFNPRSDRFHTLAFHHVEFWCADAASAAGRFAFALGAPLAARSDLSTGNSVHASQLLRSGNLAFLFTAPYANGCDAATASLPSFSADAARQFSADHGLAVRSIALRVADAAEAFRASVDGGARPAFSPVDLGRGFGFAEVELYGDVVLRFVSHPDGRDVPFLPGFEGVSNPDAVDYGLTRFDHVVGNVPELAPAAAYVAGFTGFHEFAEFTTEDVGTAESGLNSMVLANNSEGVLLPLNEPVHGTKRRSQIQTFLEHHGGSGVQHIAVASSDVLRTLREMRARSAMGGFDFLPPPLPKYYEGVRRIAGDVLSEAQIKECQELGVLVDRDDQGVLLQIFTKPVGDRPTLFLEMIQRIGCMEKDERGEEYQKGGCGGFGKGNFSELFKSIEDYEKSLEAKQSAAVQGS

Experiments:
Wheat HPPD [1] = target: T1, Wheat HPPD (Triticum aestivum, UniProt A0A3B6NLC6); experiment: kon from HPLC enzyme assay (progressive inhibition / timed pre-reaction); assay type: biochemical
Wheat HPPD [2] = target: T1, Wheat HPPD; experiment: Dissociation of enzyme/inhibitor complexes by exchange with 14C-labelled inhibitor (koff; Kd = koff/kon); assay type: binding
From the text: (§1) Herbicidal inhibitors of HPPD are found here to have generally low values of koff (in the range less than 0.0003 s^−1, often less than 0.000001 s^−1). It will be appreciated that many suitable methods known in the art for determining such low koff values are suitable for working the current invention. These include measuring rates of exchange of radio or otherwise labelled inhibitors either with or away from the enzyme inhibitor complex. For example enzyme inhibitor complexes can readily be prepared by incubating HPPD preparations with labelled or unlabelled inhibitor and then, after suitable periods, optionally rapidly separating the thus formed enzyme inhibitor complex from excess inhibitor by any suitable method such as ultrafiltration, binding to filters or exchange down a gel filtration column. Exchange reactions with the, thus prepared enzyme inhibitor complex is then initiated by addition of, as appropriate, excess labelled or unlabelled inhibitor. HPPD preparations suitable for use in the methods of the current invention are relatively unpurified, buffer-exchanged, supernatant fractions of spun crude lysates of E. coli strains engineered to express the HPPD enzyme of interest at a level of, typically, about 0.25-10% of the total soluble protein. Many methods such as radiometric, fluorimetric, NMR, fluorescence depolarisation, EPR, Mossbauer, UV/VIS spectrophotometry etc. or phonon resonance can, in principle, be used to monitor the enzyme/ligand exchange reactions and, particularly in this case where the enzyme contains an iron atom at the ligand binding site. Optionally, the monitoring method may be continuous (as, for example, with scintillation proximity/bead-based methods) or, discontinuous, based upon collection of data at various timepoints wherein samples are removed and the bound and unbound label components rapidly separated and quantitated.
Values of koff can suitably be calculated by computer fitting based upon is numerical integration of the exchange data along with information on the active-site concentration of HPPD and upon kon values obtained as described below. […] In any event, koff values are always here calculated from the rate of the major slow exchange reaction. It will be appreciated that within the scope of the current invention many methods of making the desired kinetic comparisons are possible without explicit or rigorous determination of off rates but, based upon the same underlying principle, will achieve the same selection result.
The dissociation rates (off rates) of inhibitors selected from Formula 1 and/or 2 and/or 3 and/or 4 from the complexes that they form with test and control HPPD enzymes are suitably measured in a number of ways. […]

Arabidopsis HPPD = target: T2, Arabidopsis HPPD (Arabidopsis thaliana, UniProt P93836); experiment: as above; assay type: binding
T2 construct: made in house; host or cells: E. coli BL21 (DE3) codon+ RP
T2 sequence (P93836 1-445): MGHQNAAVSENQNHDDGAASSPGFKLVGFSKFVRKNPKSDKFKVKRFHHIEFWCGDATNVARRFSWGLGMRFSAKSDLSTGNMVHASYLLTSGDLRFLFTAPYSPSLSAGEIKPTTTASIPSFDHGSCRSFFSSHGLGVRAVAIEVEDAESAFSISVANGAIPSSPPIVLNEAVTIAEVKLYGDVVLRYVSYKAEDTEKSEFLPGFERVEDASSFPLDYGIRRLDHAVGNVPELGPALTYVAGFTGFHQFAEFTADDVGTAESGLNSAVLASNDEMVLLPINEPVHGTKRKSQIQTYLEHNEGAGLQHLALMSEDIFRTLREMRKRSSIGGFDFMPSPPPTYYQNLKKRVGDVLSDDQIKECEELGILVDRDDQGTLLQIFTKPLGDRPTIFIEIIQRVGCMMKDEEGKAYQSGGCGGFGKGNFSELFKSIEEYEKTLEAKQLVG
Description: as §1, with “It” for “Herbicidal inhibitors of HPPD are found here to have generally low values of koff (in the range less than 0.0003 s^−1, often less than 0.000001 s^−1). It”, “HPPD preparations suitable for use in the methods of the current invention are relatively unpurified, buffer-exchanged, supernatant fractions of spun crude lysates of E. coli strains engineered to express the HPPD enzyme of interest at a level of, typically, about 0.25-10% of the total soluble protein.” left out
Values of koff can suitably be calculated by computer fitting based upon is numerical integration of the exchange data along with information on the active-site concentration of HPPD and upon kon values obtained as described below. […] In any event, koff values are always here calculated from the rate of the major slow exchange reaction.
^14C mesotrione is of specific activity 1.12 GBq/mmol. […] Following this initial binding reaction, exchange reactions are initiated by addition of cold mesotrione to a final concentration of 60 μM and 200 μl aliquots removed at various times to rapid chromatography down a NAP5 gel filtration column equilibrated in 50 mM BTP at pH 7 containing 0.1 M KCl, separation into fractions containing protein-bound or free radiolabel and liquid scintillation counting.

Structure (SMILES)	kon (Wheat HPPD [1]; in the presence of glycerol) [M⁻¹ s⁻¹]	ratio koff1/koff3, structure I to structure IV (Wheat HPPD [2])	koff (Wheat HPPD [2]; pH 7, 25 C, pH 7.0, 25% glycerol, exchange of 14C mesotrione with cold mesotrione) [s⁻¹]	koff (Wheat HPPD [2]; − glycerol) [s⁻¹]	koff (Arabidopsis HPPD; pH 7, 25 C, pH 7.0, 25% glycerol, exchange of 14C mesotrione with cold mesotrione, read-out: koff) [s⁻¹]	koff (Arabidopsis HPPD; without 25% v/v glycerol, exchange with 14C mesotrione, read-out: koff) [s⁻¹]	koff (Arabidopsis HPPD; − glycerol, read-out: koff) [s⁻¹]	kon (Wheat HPPD [1]; timed pre-reaction at 0.33 and 1.33 μM inhibitor, 25 C) [M⁻¹ s⁻¹]	ratio koff4/koff1, structure VI to structure I (Arabidopsis HPPD)	koff (Arabidopsis HPPD; − glycerol) [s⁻¹]
CS(=O)(=O)c1ccc(C(=O)C2C(=O)CCCC2=O)c([N+](=O)[O-])c1 [Structure I, 2-(Nitro-4-methanesulphonylbenzoyl)-cyclohexane-1,3-dione]	70000	22.9 and 16.13	0.00038	0.001	2e-06	3.3e-06	3.3e-06			
Cc1cc(C#N)ccc1C(=O)C1C(=O)C(C)(C)C(=O)C(C)(C)C1=O [Structure VI, 2-[2-methyl-4-cyanobenzoyl]-4,4,6,6-tetramethylcyclohexane-1,3,5-trione]				2.5e-05				70000	0.6	2e-06
